The IC50 is the point on the concentration scale where inhibition reaches its midpoint. Lower therefore signals higher potency.

28 compounds from patent publication US9611224B2 (Hoffmann-La Roche Inc., priority 2012, dated 2017) can be followed below.

SMILES strings stand for the structures. Structures can show the parent of a compound that is named as a salt.

In one test the target is BIR3 domain of XIAP (Homo sapiens (Human), UniProt P98170). As to the kind of experiment: TR-FRET assay for BIR3 (inhibition of binding to Peptide A).
Settings: not given
In general terms: In TR-FRET formats the signal depends on donor and acceptor labels being close together.
With `CN[C@@H](C)C(=O)N[C@H]1CCc2ccccc2N(Cc2c(OC)ccc3cc(-c4ccco4)ccc23)C1=O` [Example 49b, (S)—N—[(S)-1-(6-Furan-2-yl-2-methoxy-naphthalen-1-ylmethyl)-2-oxo-2,3,4,5-tetrahydro-1H-benzo[b]azepin-3-yl]-2-methylamino-propionamide hydrochloride], the IC50 stood at 54.1 µM.
Still for that read-out and setting: the result for `CN[C@@H](C)C(=O)N[C@H]1CCc2ccccc2N(Cc2c(OCC(F)(F)F)ccc3ccccc23)C1=O` [Example 47p, (S)-2-Methylamino-N—{(S)-2-oxo-1-[2-(2,2,2-trifluoro-ethoxy)-naphthalen-1-ylmethyl]-2,3,4,5-tetrahydro-1H-benzo[b]azepin-3-yl}-propionamide hydrochloride] reads 52.6 µM.
The same measure, in the same setting: the result for `CN[C@@H](C)C(=O)N[C@H]1CCc2ccccc2N(Cc2c(Cl)ccc3ccccc23)C1=O` [Example 47x, (S)—N—[(S)-1-(2-Chloro-naphthalen-1-ylmethyl)-2-oxo-2,3,4,5-tetrahydro-1H-benzo[b]azepin-3-yl]-2-methylamino-propionamide hydrochloride] reads 52.1 µM.

Staying with this test, now noted: 6x His-tagged BIR3 domain (aa 241-356 of XIAP), 20 nM Peptide A, 10 concentrations.
With `CCCN[C@@H](C)C(=O)N[C@H]1CCc2ccccc2N(Cc2c(OC)ccc3cc(Br)ccc23)C1=O` [Example 59, (S)—N—((S)-1-((6-Bromo-2-methoxynaphthalen-1-yl)methyl)-2-oxo-2,3,4,5-tetrahydro-1H-benzo[b]azepin-3-yl)-2-(propylamino)propanamide], the IC50 was above 50 µM.
Consider `CN[C@@H](C)C(=O)N[C@H]1CCc2ccccc2N(Cc2c(C)cccc2C)C1=O` [Example 47pp, (S)—N—[(S)-1-(2,6-Dimethyl-benzyl)-2-oxo-2,3,4,5-tetrahydro-1H-benzo[b]azepin-3-yl]-2-methylamino-propionamide hydrochloride], for which the IC50 is above 54.8 µM.
Same read-out and setting: the result for `CN[C@@H](C)C(=O)N[C@H]1CCc2ccccc2N(Cc2cc(C3CC3)cc3ccccc23)C1=O` [Example 49g, (S)—N—[(S)-1-(3-Cyclopropyl-naphthalen-1-ylmethyl)-2-oxo-2,3,4,5-tetrahydro-1H-benzo[b]azepin-3-yl]-2-methylamino-propionamide hydrochloride] reads above 54.8 µM; that for `CN[C@@H](C)C(=O)N[C@H]1CCc2ccccc2N(Cc2ccccc2Cl)C1=O` [Example 47oo, (S)—N—[(S)-1-(2-Chloro-benzyl)-2-oxo-2,3,4,5-tetrahydro-1H-benzo[b]azepin-3-yl]-2-methylamino-propionamide hydrochloride], above 54.8 µM.
On the same count and under the same terms, for `CN[C@@H](C)C(=O)N[C@H]1CCc2ccccc2N(Cc2ccc(C)cc2C)C1=O` [Example 47rr, (S)—N—[(S)-1-(2,4-Dimethyl-benzyl)-2-oxo-2,3,4,5-tetrahydro-1H-benzo[b]azepin-3-yl]-2-methylamino-propionamide hydrochloride] the value was above 54.8 µM; for `CCN[C@@H](C)C(=O)N[C@H]1CCc2ccccc2N(Cc2c(OC)ccc3cc(Br)ccc23)C1=O` [Example 61, (S)—N—((S)-1-((6-Bromo-2-methoxynaphthalen-1-yl)methyl)-2-oxo-2,3,4,5-tetrahydro-1H-benzo[b]azepin-3-yl)-2-(ethylamino)propanamide hydrochloride], above 54.8 µM; for `CN[C@@H](C)C(=O)N[C@H]1CCc2ccccc2N(Cc2c(OC)ccc3cc(C4CC4)ccc23)C1=O` [Example 49d, (S)—N—[(S)-1-(6-Cyclopropyl-2-methoxy-naphthalen-1-ylmethyl)-2-oxo-2,3,4,5-tetrahydro-1H-benzo[b]azepin-3-yl]-2-methylamino-propionamide hydrochloride], above 54.8 µM.
Still for that read-out and setting: the result for `CN[C@@H](C)C(=O)N[C@H]1CCc2ccccc2N(Cc2cncc3ccccc23)C1=O` [Example 47z, (S)—N—((S)-1-Isoquinolin-4-ylmethyl-2-oxo-2,3,4,5-tetrahydro-1H-benzo[b]azepin-3-yl)-2-methylamino-propionamide hydrochloride] reads above 54.8 µM; that for `CN[C@@H](C)C(=O)N[C@H]1CCc2ccccc2N(Cc2cc(C(F)(F)F)nc3ccc(C(F)(F)F)cc23)C1=O` [Example 57, (S)—N—((S)-1-((2,6-Bis(trifluoromethyl)quinolin-4-yl)methyl)-2-oxo-2,3,4,5-tetrahydro-1H-benzo[b]azepin-3-yl)-2-(methylamino)propanamide hydrochloride], 45.4 µM.
For the compound `CN[C@@H](C)C(=O)N[C@H]1CCc2ccccc2N(Cc2c(OC)ccc3c(-c4ccco4)cccc23)C1=O` [Example 49a, (S)—N—[(S)-1-(5-Furan-2-yl-2-methoxy-naphthalen-1-ylmethyl)-2-oxo-2,3,4,5-tetrahydro-1H-benzo[b]azepin-3-yl]-2-methylamino-propionamide], the IC50 is above 54.8 µM.
The same measure, in the same setting: for `CN[C@@H](C)C(=O)N[C@H]1CCc2ccccc2N(Cc2cc(-c3ccccc3)no2)C1=O` [Example 55c, (S)-2-Methylamino-N-[2-oxo-1-(3-phenyl-isoxazol-5-ylmethyl)-2,3,4,5-tetrahydro-1H-benzo[b]azepin-3-yl]-propionamide hydrochloride] the value was above 54.2 µM; for `CN[C@@H](C)C(=O)N[C@H]1CCc2ccccc2N(Cc2ccccc2C)C1=O` [Example 47ss, (S)-2-Methylamino-N—[(S)-1-(2-methyl-benzyl)-2-oxo-2,3,4,5-tetrahydro-1H-benzo[b]azepin-3-yl]-propionamide hydrochloride], above 57.6 µM; for `CN[C@@H](C)C(=O)N[C@H]1CCc2ccccc2N(Cc2c(OCC(F)(F)F)cnc3ccccc23)C1=O` [Example 47t, (S)-2-Methylamino-N—{(S)-2-oxo-1-[3-(2,2,2-trifluoro-ethoxy)-quinolin-4-ylmethyl]-2,3,4,5-tetrahydro-1H-benzo[b]azepin-3-yl}-propionamide hydrochloride], above 54.8 µM.
On to `CN[C@@H](C)C(=O)N[C@H]1CCc2ccccc2N(Cc2c(OC)ccc3cc(-c4n[nH]c(=O)c(=O)[nH]4)ccc23)C1=O` [Example 35, (S)—N—{(S)-1-[6-(5,6-Dioxo-1,4,5,6-tetrahydro-[1,2,4]triazin-3-yl)-2-methoxy-naphthalen-1-ylmethyl]-2-oxo-2,3,4,5-tetrahydro-1H-benzo[b]azepin-3-yl}-2-methylamino-propionamide hydrochloride], for which the IC50 is above 54.8 µM.
On the same count and under the same terms, the result for `CN[C@@H](C)C(=O)N[C@H]1CCc2ccccc2N(Cc2c(C)c(Cl)nc3ccccc23)C1=O` [Example 47n, (S)—N—[(S)-1-(2-Chloro-3-methyl-quinolin-4-ylmethyl)-2-oxo-2,3,4,5-tetrahydro-1H-benzo[b]azepin-3-yl]-2-methylamino-propionamide hydrochloride] reads 44.9 µM.
Compound `CN[C@@H](C)C(=O)N[C@H]1CCc2ccccc2N(Cc2cc[n+]([O-])c3ccccc23)C1=O` [Example 48, (S)-2-Methylamino-N—[(S)-2-oxo-1-(1-oxy-quinolin-4-ylmethyl)-2,3,4,5-tetrahydro-1H-benzo[b]azepin-3-yl]-propionamide hydrochloride] came in with an IC50 above 54.8 µM.
Same read-out and setting: for `CN[C@@H](C)C(=O)N[C@H]1CCc2ccccc2N(Cc2c(Cl)cnc3ncccc23)C1=O` [Example 47r, (S)—N—[(S)-1-(3-Chloro-[1,8]naphthyridin-4-ylmethyl)-2-oxo-2,3,4,5-tetrahydro-1H-benzo[b]azepin-3-yl]-2-methylamino-propionamide hydrochloride] the value was 40.2 µM; for `CN[C@@H](C)C(=O)N[C@H]1CCc2ccccc2N(Cc2c(OC)ccc3cc(F)ccc23)C1=O` [Example 65, (S)—N—((S)-1-((6-Fluoro-2-methoxynaphthalen-1-yl)methyl)-2-oxo-2,3,4,5-tetrahydro-1H-benzo[b]azepin-3-yl)-2-(methylamino)propanamide hydrochloride], above 54.8 µM; for `CN[C@@H](C)C(=O)N[C@H]1CCc2ccccc2N(Cc2cccc3c(C#N)cccc23)C1=O` [Example 54e, (S)—N—[(S)-1-(5-Cyano-naphthalen-1-ylmethyl)-2-oxo-2,3,4,5-tetrahydro-1H-benzo[b]azepin-3-yl]-2-methylamino-propionamide hydrochloride], above 54.8 µM.
`COc1ccc2cc(Br)ccc2c1CN1C(=O)[C@@H](NC(=O)[C@H](C)NCC(C)C)CCc2ccccc21` [Example 60, (S)—N—((S)-1-((6-Bromo-2-methoxynaphthalen-1-yl)methyl)-2-oxo-2,3,4,5-tetrahydro-1H-benzo[b]azepin-3-yl)-2-(isobutylamino)propanamide] came in with an IC50 above 50 µM.
Still for that read-out and setting: the result for `CN[C@@H](C)C(=O)N[C@H]1CCc2ccccc2N(Cc2cccc3cccc(C#N)c23)C1=O` [Example 54h, (S)—N—[(S)-1-(8-Cyano-naphthalen-1-ylmethyl)-2-oxo-2,3,4,5-tetrahydro-1H-benzo[b]azepin-3-yl]-2-methylamino-propionamide hydrochloride] reads above 54.8 µM; that for `CN[C@@H](C)C(=O)N[C@H]1CCc2ccccc2N(Cc2ccc(Cc3ccccc3)c3ccccc23)C1=O` [Example 49f, (S)—N—[(S)-1-(4-Benzyl-naphthalen-1-ylmethyl)-2-oxo-2,3,4,5-tetrahydro-1H-benzo[b]azepin-3-yl]-2-methylamino-propionamide hydrochloride], above 54 µM; that for `CN[C@@H](C)C(=O)N[C@H]1CCc2ccccc2N(Cc2ccccc2)C1=O` [Example 55e, (S)—N-(1-Benzyl-2-oxo-2,3,4,5-tetrahydro-1H-benzo[b]azepin-3-yl)-2-methylamino-propionamide hydrochloride], above 54.2 µM.
Compound `CCOc1ccc2ccccc2c1CN1C(=O)[C@@H](NC(=O)[C@H](C)NC)CCc2ccccc21` [Example 47y, (S)—N—[(S)-1-(2-Ethoxy-naphthalen-1-ylmethyl)-2-oxo-2,3,4,5-tetrahydro-1H-benzo[b]azepin-3-yl]-2-methylamino-propionamide hydrochloride] returned an IC50 above 54.8 µM.
On the same count and under the same terms, the result for `CN[C@@H](C)C(=O)N[C@H]1CCc2ccccc2N(Cc2c(C)cnc3ccccc23)C1=O` [Example 47q, (S)-2-Methylamino-N—[(S)-1-(3-methyl-quinolin-4-ylmethyl)-2-oxo-2,3,4,5-tetrahydro-1H-benzo[b]azepin-3-yl]-propionamide hydrochloride] reads above 54.8 µM.
